Measured affinities in a library of Ab-14 heavy chain variants

Data: MIT Lincoln Laboratory AlphaSeq set, Engelhart et al. 2022, doi:10.1038/s41597-022-01779-4, as distributed in FLAb.

The target is the same throughout: PDVDLGDISGINAS, from the HR2 region of SARS-CoV-2 spike.

Each scFv is VH, three GGGGS repeats, VL, as in the parent Ab-14, and differs from it in the CDRs of the heavy chain only.
VH: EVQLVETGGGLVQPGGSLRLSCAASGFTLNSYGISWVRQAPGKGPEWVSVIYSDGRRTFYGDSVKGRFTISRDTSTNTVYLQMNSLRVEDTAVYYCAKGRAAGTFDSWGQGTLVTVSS
VL: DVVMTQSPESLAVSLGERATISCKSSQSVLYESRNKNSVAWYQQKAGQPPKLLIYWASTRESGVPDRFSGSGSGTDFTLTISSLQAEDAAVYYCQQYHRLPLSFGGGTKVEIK

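The parent was found by panning a naive human phage display library on the peptide. Variants in AAYL49 differ from the parent at up to three CDR positions; double and triple changes were sampled at random. AlphaSeq pools MATa yeast showing the antibodies with MATalpha yeast showing the peptide. After mating in shaken culture at 30 °C for 16 h, diploids were selected and their barcode pairs sequenced. Read counts were normalised to the haploid input and turned into Kd by a linear fit to BCL2-family pairs of known affinity, for each replicate. Mating was done three times.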

Substitutions are numbered in sequence along the VH above, starting at 1 (not Kabat).
All variants listed here change R56 of the VH, counted from its first residue.
Scale: log10 of Kd in nM, estimated from mating counts; low values are strong binders.
A pair that was not seen in that replicate is written "ND"; this usually means weak binding, but a binder can also be missed.
Three control strains display no target. For library AAYL49, 15% of the pairings with them gave a signal, with a median of 4.06 and one signal in twenty below 2.83, so weak values seen in few replicates may be background. The control count says in how many pairings with the empty strains this scFv gave a signal.
In this assay the parent's reference entry averaged 0.65; its copy inside this library read 4.11 (one replicate of three).

- I51L D54V R56S = ND, ND, ND (controls 1 of 9)
- R56Y R100V D106R = ND, ND, ND (controls 0 of 9)
- D54L R56H A101V = ND, ND, ND (controls 0 of 9)
- R56P F59H K65R = ND, ND, ND (controls 1 of 9)
- D54P R56V G99S = ND, ND, ND (controls 0 of 9)
- R56D R57L D62Q = ND, ND, ND (controls 2 of 9)
- N30C R56Q G99A = 1.79, ND, 2.18 (controls 1 of 9)
- Y32P G55I R56Q = ND, ND, ND (controls 3 of 9)
- I51Q R56D K65N = ND, ND, ND (controls 0 of 9)
- Y52P G55H R56S = ND, 4.60, ND (controls 0 of 9)
- F27E I51S R56S = ND, ND, ND (controls 0 of 9)
- R56Q G61H S63A = 1.29, 1.53, 1.55 (controls 0 of 9)
- R56Y R100D F105I = ND, ND, ND (controls 0 of 9)
- R56V R57F R100L = ND, ND, ND (controls 1 of 9)
- R56W G61S D106E = 0.53, 0.72, 0.63 (controls 1 of 9)
- F27P G33W R56W = 5.61, ND, ND (controls 4 of 9)
- I34P R56K F105D = ND, ND, ND (controls 1 of 9)
- Y52W R56Q A102Q = ND, ND, ND (controls 3 of 9)
- Y52N R56C R100P = ND, 3.47, ND (controls 3 of 9)
- G33M R56D S63H = 3.85, 3.86, ND (controls 3 of 9)
- S53D R56Y D62K = ND, ND, ND (controls 1 of 9)
- R56D F59Q V64T = ND, 3.69, ND (controls 1 of 9)
- R56V G99W R100I = 0.62, 0.97, 0.50 (controls 2 of 9)
- G33K I51T R56N = ND, 4.12, 5.36 (controls 5 of 9)
- G33Y G55L R56P = 5.79, 4.22, ND (controls 2 of 9)
- T28Q Y32N R56F = 3.27, ND, ND (controls 1 of 9)
- T28H R56Y G99S = 1.52, 1.45, 2.39 (controls 0 of 9)
- R56T R57K S107K = ND, ND, 4.59 (controls 1 of 9)
- N30M R56W A101C = 2.86, 3.34, 2.48 (controls 4 of 9)
- F27S R56F G99W = 4.77, 4.44, ND (controls 6 of 9)

The first 2 variants above that were never detected:

{"changes": "I51L D54V R56S", "replicates, log10 nM": "ND, ND, ND", "control signals": "1 of 9"}
{"changes": "R56Y R100V D106R", "replicates, log10 nM": "ND, ND, ND", "control signals": "0 of 9"}